A value given as a limit tells only on which side of the number the result lay.

This passage reports Log kill results from ChEMBL document CHEMBL1145831, “A convergent approach to cryptophycin 52 analogues: synthesis and biological evaluation of a novel series of fragment a epoxides and chlorohydrins” (J Med Chem, 2003).

The species entered for assay [1] is Mus musculus.
Assay [2] is filed under the species Mus musculus. The source holds these as a separate data set.
The species named for assay [3] is Mus musculus. The source holds these as a separate data set.
Assay [4] is filed under the species Mus musculus. The source holds these as a separate data set.
For assay [5], the species on record is Mus musculus. The source holds these as a separate data set.
The species named for assay [6] is Mus musculus. This is another data set of the same source.
The species named for assay [7] is Mus musculus. This is another data set of the same source.
For assay [8], the species on record is Mus musculus. The source holds these as a separate data set.
Assay [9] is filed under the species Mus musculus. The source holds these as a separate data set.
Assay [10] is filed under the species Mus musculus. This is another data set of the same source.
Assay [11] is filed under the species Mus musculus. The source holds these as a separate data set.

`COc1ccc(C[C@H]2NC(=O)/C=C/C[C@@H]([C@H](C)[C@H]3O[C@@H]3c3ccc(CO)cc3)OC(=O)[C@H](CC(C)C)OC(=O)C(C)(C)CNC2=O)cc1Cl` displayed a Log kill in assay [1] of 2.
Turning to `COc1ccc(C[C@H]2NC(=O)/C=C/C[C@@H]([C@H](C)[C@@H](O)[C@@H](Cl)c3ccc(CN4CCNCC4)cc3)OC(=O)[C@H](CC(C)C)OC(=O)C(C)(C)CNC2=O)cc1Cl.Cl.Cl`, the Log kill in assay [2] worked out at 0.8; in [3], 4.7; in assay [4], 4.7.
On to `COc1ccc(C[C@H]2NC(=O)/C=C/C[C@@H]([C@H](C)[C@H]3O[C@@H]3c3ccccc3)OC(=O)[C@H](CC(C)C)OC(=O)C(C)(C)CNC2=O)cc1Cl` [CRYPTOPHYCIN 52], for which the Log kill in assay [5] is 1.9.
For `COc1ccc(C[C@H]2NC(=O)/C=C/C[C@@H]([C@H](C)[C@@H](O)[C@@H](Cl)c3cccc(C)c3)OC(=O)[C@H](CC(C)C)OC(=O)C(C)(C)CNC2=O)cc1Cl`, the Log kill in assay [6] worked out at 1.5.
In the case of `COc1ccc(C[C@H]2NC(=O)/C=C/C[C@@H]([C@H](C)[C@@H](O)[C@@H](Cl)c3ccc(COC(=O)CN)cc3)OC(=O)[C@H](CC(C)C)OC(=O)C(C)(C)CNC2=O)cc1Cl.Cl`, the Log kill in assay [7] worked out at 3.7; in assay [8] it was 3.6.
As for `COc1ccc(C[C@H]2NC(=O)/C=C/C[C@@H]([C@H](C)[C@@H](O)[C@@H](Cl)c3ccccc3)OC(=O)[C@H](CC(C)C)OC(=O)C(C)(C)CNC2=O)cc1Cl`, the Log kill in [9], in [10] and in [11] was greater than 4.5 each time.
